Measured values: patent US10519177B2, “Heterocyclic compounds and uses thereof” (Plexxikon Inc., priority 2013, dated 2019)

Assays:
MV-4-11 cells = experiment: Oncology cell growth assay MV-4-11 (CellTiter Glo); format: cell-based; settings: read-out: Cell activity (IC50 μM) MV-4-11 3d-Growth
From the text: Published bromodomain inhibitors JQ1 and iBET 151 have shown activity in variety of cancer cells such leukemia and lymphoma, multiple myeloma cells, NUT midline carcinoma and glioblastoma cells (Dawson M A et al. 2011; Delmore J E 2011; Chen Z et al. 2013; Filippakopoulos P et al. 2010; Mertz J A et al. 2011; Ott C J et al. 2012). In this study, we test compounds in different cancer cell lines. MV-4-11 and MOLM-13 are AML cell lines harboring a MLL-AF4 and MLL-AF9 translocation, respectively. MM.1S is a multiple myeloma cell line. SK-N-AS, IMR-32 and SK-N-BE(2) are neuroblastoma cell lines. IMR-32 and SK-N-BE(2) cell lines harbor MYCN amplifications.
MV-4-11, MM.1S, IMR-32, SK-N-AS and SK-N-BE(2) were obtained from ATCC (IL, USA) and MOLM-13 were purchased from DSMZ (Braunschweig, German). Cells are cultured as recommended by their sources. For growth inhibition studies 3000 cells are seeded in wells of a 96-well plate in 75 μL of culture media. After several hours, growth media containing compounds of formula (I) are added to the wells. Compound at a maximal concentration of 5 mM was serially diluted 1:3 for a total of 8 point titration with DMSO as a control. A 1 μL aliquot of each dilution point is added to 249 μL growth media and 75 μL is added to each well containing cells, providing 10 μM compound at the maximum concentration point. The final concentration of DMSO in all wells is 0.2%. Cells are incubated for 72 hours, and 25 μL of CellTiter Glo Reagent (Promega GA, USA) is added to each well. Plates are shaken for approximately 10 minutes and chemiluminescent signal is read on Tecan microplate reader. The measured luminescence correlates directly with cell number.
All data is normalized to the mean of eight DMSO high control wells on each plate. A four parameter curve fit of the following formula was then applied: Y=a+(b−a)/(1+(x/c)^d) Where ‘a’ is the minimum, ‘b’ is the maximum, ‘c’ is the pIC50 and ‘d’ is the Hill slope. […] Myc Reporter Assay

BRD4-BD12 (1-477) = BRD4-BD12 (1-477) (Homo sapiens (Human), UniProt O60885); experiment: Alphascreen binding assay BRD4-BD12; settings: read-out: Biochemical activity (IC50 μM) BRD4(1 2) H4

Cc1noc(C)c1-c1cnc2c(-c3ccc(C(=O)O)c(Cl)c3)cn(C(C)c3ccccn3)c2c1 (stereo not shown)
IC50 (MV-4-11 cells): < 1 µM | IC50 (BRD4-BD12 (1-477)): < 1 µM

Cc1noc(C)c1-c1cnc2c(-c3ccc(C(=O)O)s3)cn(C(C)c3ccccn3)c2c1 (stereo not shown)
IC50 (MV-4-11 cells): 1 to 10 µM | IC50 (BRD4-BD12 (1-477)): < 1 µM

Cc1noc(C)c1-c1cnc2c(-c3ccc(C(=O)O)cc3Cl)cn(C(C)c3ccccn3)c2c1 (stereo not shown)
IC50 (MV-4-11 cells): < 1 µM | IC50 (BRD4-BD12 (1-477)): < 1 µM

Cc1noc(C)c1-c1cnc2c(-c3ccc(C(=O)O)c(F)c3F)cn(C(C)c3ccccn3)c2c1 (stereo not shown)
IC50 (MV-4-11 cells): < 1 µM | IC50 (BRD4-BD12 (1-477)): < 1 µM

COC(=O)Nc1ccc(-c2cn(C(C)c3ccccn3)c3cc(-c4c(C)noc4C)cnc23)cc1 (stereo not shown)
IC50 (MV-4-11 cells): < 1 µM | IC50 (BRD4-BD12 (1-477)): < 1 µM

Cc1noc(C)c1-c1cnc2c(-c3ccc(C(=O)O)cc3F)cn(C(C)c3ccccn3)c2c1 (stereo not shown)
IC50 (MV-4-11 cells): < 1 µM | IC50 (BRD4-BD12 (1-477)): < 1 µM

Cc1cc(-c2cn(C(C)c3ccccn3)c3cc(-c4c(C)noc4C)cnc23)ccc1C(=O)O (stereo not shown)
IC50 (MV-4-11 cells): < 1 µM | IC50 (BRD4-BD12 (1-477)): < 1 µM

Cc1noc(C)c1-c1cnc2c(-c3cccc(CC(=O)O)c3)cn(C(C)c3ccccn3)c2c1 (stereo not shown)
IC50 (MV-4-11 cells): 1 to 10 µM | IC50 (BRD4-BD12 (1-477)): < 1 µM

Cc1noc(C)c1-c1cnc2c(-c3ccc(C(=O)O)c(F)c3)cn(C(C)c3ccccn3)c2c1 (stereo not shown)
IC50 (MV-4-11 cells): < 1 µM | IC50 (BRD4-BD12 (1-477)): < 1 µM

Cc1noc(C)c1-c1cnc2c(-c3ccc(F)c(C(=O)O)c3)cn(C(C)c3ccccn3)c2c1 (stereo not shown)
IC50 (MV-4-11 cells): 1 to 10 µM | IC50 (BRD4-BD12 (1-477)): < 1 µM

Cc1noc(C)c1-c1cnc2c(-c3ccc(C(=O)O)nc3)cn(C(C)c3ccccn3)c2c1 (stereo not shown)
IC50 (MV-4-11 cells): < 1 µM | IC50 (BRD4-BD12 (1-477)): < 1 µM

CCC(c1ccccn1)n1cc(-c2cccc(CC(=O)O)c2)c2ncc(-c3c(C)noc3C)cc21 (stereo not shown)
IC50 (MV-4-11 cells): < 1 µM | IC50 (BRD4-BD12 (1-477)): < 1 µM

Cc1noc(C)c1-c1cnc2c(-c3cnc(C4CC4)nc3)cn(C(C)c3ccccn3)c2c1 (stereo not shown)
IC50 (MV-4-11 cells): < 1 µM | IC50 (BRD4-BD12 (1-477)): < 1 µM

COc1ncc(-c2cn(C(C)c3ccccn3)c3cc(-c4c(C)noc4C)cnc23)cn1 (stereo not shown)
IC50 (MV-4-11 cells): < 1 µM | IC50 (BRD4-BD12 (1-477)): < 1 µM
